From PubChem BioAssay AID1823 (The Scripps Research Institute Molecular Screening Center, 2009) come the findings set out here.

The entries are a selection whose mix differs from that of the whole data set. Calls of active or inactive are those of the source. Cut-off read from the data, not from the text of the source: active = inhibition above about 75%; inactive = the rest.

The nature of this experiment: counter-screen for Nox1 inhibitors: inhibitors of luminol chemiluminescence (AID 1823). The conditions noted are these: HRP/luminol/H2O2 chemiluminescence counterscreen; at 6.7 µM; stronger effect = higher value.
As to `O=C(OC1CN2CCC1CC2)c1cccc([N+](=O)[O-])c1` (configuration not stated), the inhibition is inactive: 3.82%. The figure for `CCOC(=O)/C(=N/Nc1ccc([N+](=O)[O-])cc1)N1CC1` is inactive: 7.7%.

The term inhibition denotes the drop in the measured response relative to a control, in per cent.
